US20130252943A1, “BICYCLIC OXAZOLE LACTAMS AS ALLOSTERIC MODULATORS OF MGLUR5 RECEPTORS” (VANDERBILT UNIVERSITY, priority 2012, published 2013)

Sequences of proteins named here, by UniProt entry; tags and fusion partners are left off. Residues count along the entry.
UniProt P41594, 21-1180 isoform 2 limits assumed: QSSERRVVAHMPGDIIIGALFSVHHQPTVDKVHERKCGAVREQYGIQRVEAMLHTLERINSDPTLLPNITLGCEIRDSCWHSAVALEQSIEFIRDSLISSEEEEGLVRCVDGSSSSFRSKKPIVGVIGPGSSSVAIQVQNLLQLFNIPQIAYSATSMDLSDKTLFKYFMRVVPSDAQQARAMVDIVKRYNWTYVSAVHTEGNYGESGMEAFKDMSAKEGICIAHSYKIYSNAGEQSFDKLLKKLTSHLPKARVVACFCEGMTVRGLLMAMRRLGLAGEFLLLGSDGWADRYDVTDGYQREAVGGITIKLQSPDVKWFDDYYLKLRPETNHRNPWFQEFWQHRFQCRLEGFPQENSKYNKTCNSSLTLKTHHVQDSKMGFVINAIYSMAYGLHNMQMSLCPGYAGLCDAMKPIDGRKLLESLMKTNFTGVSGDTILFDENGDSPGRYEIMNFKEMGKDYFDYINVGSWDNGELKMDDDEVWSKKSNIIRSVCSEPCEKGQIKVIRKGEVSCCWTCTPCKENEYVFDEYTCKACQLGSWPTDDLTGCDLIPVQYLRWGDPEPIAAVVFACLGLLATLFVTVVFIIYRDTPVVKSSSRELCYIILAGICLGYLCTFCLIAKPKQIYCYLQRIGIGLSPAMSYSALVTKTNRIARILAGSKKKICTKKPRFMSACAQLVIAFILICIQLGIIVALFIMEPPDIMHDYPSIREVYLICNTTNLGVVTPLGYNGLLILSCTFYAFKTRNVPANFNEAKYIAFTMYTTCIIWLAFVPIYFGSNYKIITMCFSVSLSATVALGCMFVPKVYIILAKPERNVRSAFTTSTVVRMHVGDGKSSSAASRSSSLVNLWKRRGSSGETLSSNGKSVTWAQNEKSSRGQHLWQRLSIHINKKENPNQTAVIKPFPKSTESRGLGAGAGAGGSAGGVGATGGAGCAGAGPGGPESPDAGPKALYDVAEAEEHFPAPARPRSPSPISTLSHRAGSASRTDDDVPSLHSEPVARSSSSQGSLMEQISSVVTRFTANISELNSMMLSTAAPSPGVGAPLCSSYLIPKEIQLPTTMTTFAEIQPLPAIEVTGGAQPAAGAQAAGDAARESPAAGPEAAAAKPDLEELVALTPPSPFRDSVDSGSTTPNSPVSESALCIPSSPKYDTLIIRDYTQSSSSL

Target: human mGluR5 (Homo sapiens, UniProt P41594)
Test: Cell-based functional Ca2+ mobilization assay (FDSS), potentiation of glutamate EC20 response, H10H cell line
Details: HEK H10H cells; for Emax (%): maximum average response at a single concentration, as percent of maximal glutamate response, glutamate EC20; for pEC50: positive allosteric modulation in presence of glutamate EC20, concentration in mol/L

Row | Compound | Emax (%) | pEC50
1 | O=C1c2oc(COc3ccccc3)nc2CCN1c1ccc(F)cc1F | 74% | 6.37
2 | O=C1c2oc(COc3ccccc3)nc2CCCN1c1ccc(F)cc1 | 76% | 5.76
